Laboratory results published in ChEMBL document CHEMBL3870360, “GluN2A-Selective Pyridopyrimidinone Series of NMDAR Positive Allosteric Modulators with an Improved in Vivo Profile” (ACS Med Chem Lett, 2017).

What was measured:
CHO [1] = assay: Selectivity ratio of EC50 for GluN1/GluN2C receptor (unknown origin) to EC50 for GluN1/GluN2A receptor (unknown origin) expressed in CHO cells; format: cell-based; details: Homo sapiens
CHO [2] = assay: Selectivity ratio of EC50 for GluN1/GluN2D receptor (unknown origin) to EC50 for GluN1/GluN2A receptor (unknown origin) expressed in CHO cells; format: cell-based; details: Homo sapiens

N#C[C@@H]1C[C@H]1c1c(Cl)ccc2nc(Cn3nc(C(F)(F)F)cc3Cl)cc(=O)n12
Ratio EC50 (CHO [1]): > 100 | Ratio EC50 (CHO [2]): > 100
